This test relates to P. berghei. Description: Murine P. berghei model, oral 1x or 4x 100 mg/kg. Type of test: in vivo. To be noted: mice. How it is done:
EXAMPLE. CEM-101 activity in infected mice.
EXAMPLE. CEM-101 was tested in the murine P. berghei model as described by Vennerstrom et al. Nature 430(7002):900-904 (2004), the disclosure of which is incorporated herein by reference.

The values that follow come from patent US9480679B2, “Methods for treating malaria, tuberculosis and MAC diseases” (priority 2009, dated 2016).

`CCC[C@@H]1C[C@@H](C(=O)N[C@@H]([C@H]2O[C@H](SC)[C@H](O)[C@@H](O)[C@H]2O)[C@H](C)Cl)N(C)C1` [Clindamycin]: the “Activity (%)” value is, setting by setting: (1 × 100 mg/kg oral, DMSO) 78.79%; (1 × 100 mg/kg oral, HPMC) 79.06%; (4 × 100 mg/kg oral, DMSO) 99.75%; (4 × 100 mg/kg oral, HPMC) 99.59%. Also, the “Survival” value is reported as 7.0 days (1 × 100 mg/kg oral, DMSO); 7.3 days (1 × 100 mg/kg oral, HPMC); 18.3 days (4 × 100 mg/kg oral, DMSO, survivors sacrificed on Day 31); 20.0 days (4 × 100 mg/kg oral, HPMC, survivors sacrificed on Day 31). The “survival increasing to Day” value (P. berghei strain ANKA, 4×100 mg/kg) was determined as 15 days.
